Earlier results, collected in publication PMC11634579, “Network pharmacology, experimental validation and pharmacokinetics integrated strategy to reveal pharmacological mechanism of goutengsan on methamphetamine dependence” (Frontiers in Pharmacology, 2024).

Set-up: method as in Ru et al., 2014
Settings: obtained from TCMSP database; ref Ru et al., 2014; cited from earlier work
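Wherever BBB (blood–brain–barrier) is given: unitless TCMSP predicted score with screening cut-off BBB at least 0.3.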

Substance	BBB (blood–brain–barrier)	OB% (oral bioavailability)
Euchrenone	0.39	30.29%
Alexandrine-qt	0.88	36.91%
